Legend:
[1] = circular dichroism
[2] = target: αvβ3 integrin (Homo sapiens, UniProt P05106+P06756); experiment: Yeast display binding of EETI 2.5D-Axl fusion to soluble αvβ3 integrin; conditions: 20, 50 or 100 nM αvβ3 integrin

Amino acid sequences for entries named in this document (tags omitted). Residues count along the entry.
UniProt P05106, 27-788: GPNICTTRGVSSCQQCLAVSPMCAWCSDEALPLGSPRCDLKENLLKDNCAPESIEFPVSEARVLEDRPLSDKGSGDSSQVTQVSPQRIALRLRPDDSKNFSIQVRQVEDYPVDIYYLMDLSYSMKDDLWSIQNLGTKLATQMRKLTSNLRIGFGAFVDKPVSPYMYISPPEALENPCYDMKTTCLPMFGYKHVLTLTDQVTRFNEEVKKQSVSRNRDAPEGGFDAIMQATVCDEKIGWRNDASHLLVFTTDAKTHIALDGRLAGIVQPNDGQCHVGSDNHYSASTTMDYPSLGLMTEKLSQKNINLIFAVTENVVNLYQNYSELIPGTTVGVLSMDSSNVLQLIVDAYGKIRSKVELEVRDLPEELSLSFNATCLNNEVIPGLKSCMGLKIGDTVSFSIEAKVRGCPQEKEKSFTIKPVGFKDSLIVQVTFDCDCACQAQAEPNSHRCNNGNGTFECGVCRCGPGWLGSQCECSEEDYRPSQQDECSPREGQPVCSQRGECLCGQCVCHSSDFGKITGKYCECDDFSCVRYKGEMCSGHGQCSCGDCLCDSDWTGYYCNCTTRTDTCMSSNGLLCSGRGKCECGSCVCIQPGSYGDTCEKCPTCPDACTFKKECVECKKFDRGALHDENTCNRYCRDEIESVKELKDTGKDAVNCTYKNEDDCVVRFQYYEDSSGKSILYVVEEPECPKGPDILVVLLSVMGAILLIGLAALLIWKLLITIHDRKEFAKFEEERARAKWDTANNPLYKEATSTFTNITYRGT
UniProt P06756, 891-1048 partner limits assumed: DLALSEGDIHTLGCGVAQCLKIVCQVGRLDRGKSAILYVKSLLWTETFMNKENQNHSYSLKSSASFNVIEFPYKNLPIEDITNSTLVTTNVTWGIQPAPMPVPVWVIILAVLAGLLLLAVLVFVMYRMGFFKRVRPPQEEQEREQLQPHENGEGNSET
UniProt P06756, 31-889 limits assumed: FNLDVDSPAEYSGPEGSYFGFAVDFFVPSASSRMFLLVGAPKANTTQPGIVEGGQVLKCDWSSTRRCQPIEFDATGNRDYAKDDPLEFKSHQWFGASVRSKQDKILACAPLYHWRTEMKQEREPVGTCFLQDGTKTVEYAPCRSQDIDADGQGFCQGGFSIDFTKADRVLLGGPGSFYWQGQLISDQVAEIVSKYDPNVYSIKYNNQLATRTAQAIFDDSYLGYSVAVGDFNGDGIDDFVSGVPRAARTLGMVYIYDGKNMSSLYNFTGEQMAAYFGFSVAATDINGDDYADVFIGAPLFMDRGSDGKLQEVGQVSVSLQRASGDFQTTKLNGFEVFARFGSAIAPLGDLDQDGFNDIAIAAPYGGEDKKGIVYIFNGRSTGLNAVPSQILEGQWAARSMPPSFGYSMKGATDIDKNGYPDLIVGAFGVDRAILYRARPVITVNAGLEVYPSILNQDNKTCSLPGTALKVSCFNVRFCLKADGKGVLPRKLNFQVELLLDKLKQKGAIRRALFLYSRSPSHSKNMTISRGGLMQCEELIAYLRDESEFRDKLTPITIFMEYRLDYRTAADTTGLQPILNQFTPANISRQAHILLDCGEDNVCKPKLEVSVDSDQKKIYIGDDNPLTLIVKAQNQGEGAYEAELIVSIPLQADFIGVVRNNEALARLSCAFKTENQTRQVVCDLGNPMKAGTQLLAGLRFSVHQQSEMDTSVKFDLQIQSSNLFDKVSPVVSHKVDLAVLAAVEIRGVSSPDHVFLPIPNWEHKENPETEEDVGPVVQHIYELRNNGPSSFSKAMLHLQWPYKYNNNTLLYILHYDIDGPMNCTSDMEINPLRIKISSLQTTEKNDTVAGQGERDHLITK

## Wt Axl: first Ig domain of Axl, amino acids 19-132 (Genbank P30530), SEQ ID NO: 61 [reference compound]
[1]
  Tm (° C.): 41 ± 0.6 °C
  melting temperature (Tm): 41 °C
[2]
  binding to soluble αvβ3 integrin: no native affinity

Source: patent US12240882B2, “Fusion proteins comprising an engineered knottin peptide and uses thereof” (The Board of Trustees of the Leland Stanford Junior …, priority 2010, dated 2025)
